# The list shows a part of the results, in another mix than the full data. Some tests of the compounds listed are not included; inactive here does not mean inactive elsewhere. Active and inactive are the calls of the source. No stated cut-off is given here; in the data, active means inhibition above about 30%; inactive means the rest.
# Amino acid sequences for entries named in this document (tags omitted).
# UniProt Q70CQ3, whole entry: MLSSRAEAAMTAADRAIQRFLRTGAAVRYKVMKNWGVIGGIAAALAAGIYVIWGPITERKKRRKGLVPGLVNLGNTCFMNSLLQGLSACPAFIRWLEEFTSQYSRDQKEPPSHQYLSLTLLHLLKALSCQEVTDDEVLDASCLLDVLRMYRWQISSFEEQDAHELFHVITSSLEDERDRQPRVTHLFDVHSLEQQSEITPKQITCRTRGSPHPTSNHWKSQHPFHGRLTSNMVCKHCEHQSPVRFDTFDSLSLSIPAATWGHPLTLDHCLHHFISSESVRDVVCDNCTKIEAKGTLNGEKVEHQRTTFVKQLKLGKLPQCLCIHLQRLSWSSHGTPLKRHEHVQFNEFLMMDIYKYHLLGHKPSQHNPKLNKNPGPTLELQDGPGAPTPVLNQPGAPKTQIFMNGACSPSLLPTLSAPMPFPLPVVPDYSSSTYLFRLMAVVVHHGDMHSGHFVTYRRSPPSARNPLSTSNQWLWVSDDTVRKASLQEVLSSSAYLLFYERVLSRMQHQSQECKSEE
# Molecular target: Ubiquitin carboxyl-terminal hydrolase 30 (Homo sapiens) (UniProt Q70CQ3)
# Test: blocks human USP30 ubiquitin-rhodamine cleavage (AID 1645860)
# Details: purified USP30, Ub-rhodamine cleavage fluorescence; at 25 µM; active compounds read high
row,SMILES,inhibition
1,O=C(NCC1(N2CCCCC2)CCCCC1)c1ccc2ccccc2c1,inactive: -11.5%
2,O=C(NCC1(N2CCOCC2)CCCCC1)c1ccccc1F,inactive: -3.6%
3,Cc1c(C(=O)NCC2(N(C)C)CCCCC2)oc2ccccc12,inactive: -0.00466%
4,Cc1c(C(=O)NCC2(N(C)C)CCCCC2)oc2ccc(F)cc12,inactive: 9.34%
5,COc1cccc(C(=O)NCC2(N3CCCCC3)CCCCC2)c1,inactive: -147%
6,COc1ccc(C(=O)NCC2(N3CCOCC3)CCCCC2)cc1,inactive: -7.93%
7,O=C(NCC1(N2CCCCC2)CCCCC1)c1ccc2c(c1)OCCO2,inactive: 13.4%
